Laboratory results published in US7585941B2 (priority 2004, dated 2009).

Amino acid sequences for entries named in this document (tags omitted). Residues count along the entry.
UniProt P33535, whole entry: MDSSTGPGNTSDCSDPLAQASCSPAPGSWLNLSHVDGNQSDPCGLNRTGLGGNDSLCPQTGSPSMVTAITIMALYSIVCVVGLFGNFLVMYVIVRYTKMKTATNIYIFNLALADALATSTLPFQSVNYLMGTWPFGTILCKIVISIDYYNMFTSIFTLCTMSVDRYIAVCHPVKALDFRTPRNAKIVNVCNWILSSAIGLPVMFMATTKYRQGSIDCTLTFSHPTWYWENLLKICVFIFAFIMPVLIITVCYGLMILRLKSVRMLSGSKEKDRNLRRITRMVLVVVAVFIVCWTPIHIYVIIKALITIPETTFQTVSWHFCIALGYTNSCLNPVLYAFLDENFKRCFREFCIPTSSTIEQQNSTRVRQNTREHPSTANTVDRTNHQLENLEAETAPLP
UniProt P33535, 1-451 isoform P33535-6: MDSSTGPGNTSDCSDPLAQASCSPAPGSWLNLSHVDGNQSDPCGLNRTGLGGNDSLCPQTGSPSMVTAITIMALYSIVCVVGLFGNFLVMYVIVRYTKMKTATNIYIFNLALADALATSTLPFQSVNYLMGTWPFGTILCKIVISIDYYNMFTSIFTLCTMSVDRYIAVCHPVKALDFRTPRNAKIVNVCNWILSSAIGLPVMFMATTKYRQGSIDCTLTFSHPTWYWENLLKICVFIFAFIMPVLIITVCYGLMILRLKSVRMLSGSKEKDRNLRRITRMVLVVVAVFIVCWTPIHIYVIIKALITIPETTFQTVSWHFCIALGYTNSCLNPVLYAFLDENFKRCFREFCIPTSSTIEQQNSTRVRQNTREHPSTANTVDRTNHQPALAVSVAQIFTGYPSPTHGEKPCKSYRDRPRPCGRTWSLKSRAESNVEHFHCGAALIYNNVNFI
UniProt P33535, 1-386 limits assumed: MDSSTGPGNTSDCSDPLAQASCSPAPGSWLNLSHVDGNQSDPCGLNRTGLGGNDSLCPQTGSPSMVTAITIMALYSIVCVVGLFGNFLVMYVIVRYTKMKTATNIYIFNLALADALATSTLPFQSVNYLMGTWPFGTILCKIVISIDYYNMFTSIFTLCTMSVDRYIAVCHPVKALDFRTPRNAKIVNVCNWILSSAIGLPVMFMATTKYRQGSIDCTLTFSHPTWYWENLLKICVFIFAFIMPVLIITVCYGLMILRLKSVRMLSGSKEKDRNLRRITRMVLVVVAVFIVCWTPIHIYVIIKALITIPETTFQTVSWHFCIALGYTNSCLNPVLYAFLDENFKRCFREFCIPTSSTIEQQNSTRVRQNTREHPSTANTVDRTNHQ
UniProt P33535, 1-387 isoform P33535-8 I238V: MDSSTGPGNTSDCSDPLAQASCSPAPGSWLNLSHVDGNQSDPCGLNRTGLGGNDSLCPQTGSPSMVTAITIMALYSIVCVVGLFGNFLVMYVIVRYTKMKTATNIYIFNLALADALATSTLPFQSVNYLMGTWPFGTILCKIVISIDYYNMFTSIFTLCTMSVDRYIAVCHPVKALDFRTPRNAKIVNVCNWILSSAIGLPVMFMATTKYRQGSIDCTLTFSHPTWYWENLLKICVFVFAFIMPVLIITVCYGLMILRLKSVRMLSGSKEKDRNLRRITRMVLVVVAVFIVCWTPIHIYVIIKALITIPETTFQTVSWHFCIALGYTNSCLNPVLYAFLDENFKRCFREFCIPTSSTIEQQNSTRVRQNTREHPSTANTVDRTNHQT
UniProt P33535, 1-390 isoform P33535-2: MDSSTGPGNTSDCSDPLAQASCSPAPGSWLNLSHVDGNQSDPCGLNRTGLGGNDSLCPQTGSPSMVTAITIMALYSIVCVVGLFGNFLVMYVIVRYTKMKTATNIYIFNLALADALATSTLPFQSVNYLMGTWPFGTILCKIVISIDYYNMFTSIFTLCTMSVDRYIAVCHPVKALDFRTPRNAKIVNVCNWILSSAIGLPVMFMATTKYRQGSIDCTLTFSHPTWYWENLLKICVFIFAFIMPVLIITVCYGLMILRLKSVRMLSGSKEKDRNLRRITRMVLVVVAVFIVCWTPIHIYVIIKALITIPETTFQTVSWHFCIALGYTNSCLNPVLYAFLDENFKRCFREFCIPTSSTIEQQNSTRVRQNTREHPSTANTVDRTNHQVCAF

Key:
Test in all cases: biochemical
rMOR-1 [1] = target: T1, rMOR-1 (Rattus norvegicus, UniProt P33535); format: binding
rMOR-1C1 [2] = target: T2, rMOR-1C1 (Rattus norvegicus, UniProt P33535); format: binding
rMOR-1 (no E4) = target: T3, rMOR-1 (no E4) (Rattus norvegicus, UniProt P33535); format: binding
T3 construct: rMOR-1 no E 4; expressed in transfected cells

rMOR-1D [3] = target: T4, rMOR-1D (Rattus norvegicus, UniProt P33535); format: binding
rMOR-1A [4] = target: T5, rMOR-1A (Rattus norvegicus, UniProt P33535); format: binding
rMOR-1A [5] = target: T5, rMOR-1A; conditions: stimulation of [35S]GTPγS binding
rMOR-1 (no Exon 4) = rMOR-1 (no Exon 4) (Rattus norvegicus, UniProt P33535); conditions: stimulation of [35S]GTPγS binding
rMOR-1C1 [6] = target: T2, rMOR-1C1
rMOR-1 [7] = target: T1, rMOR-1; conditions: stimulation of [35S]GTPγS binding
rMOR-1D [8] = target: T4, rMOR-1D

Row | SMILES | Kd (rMOR-1 [1]) [nM] | Kd (rMOR-1C1 [2]) [nM] | Kd (rMOR-1 (no E4)) [nM] | Kd (rMOR-1D [3]) [nM] | Kd (rMOR-1A [4]) [nM] | EC50 (rMOR-1A [5]) [nM] | Ki (rMOR-1 [1]) [nM] | Ki (rMOR-1C1 [2]) [nM] | EC50 (rMOR-1 (no Exon 4)) [nM] | Ki (rMOR-1 (no E4)) [nM] | EC50 (rMOR-1C1 [6]) [nM] | EC50 (rMOR-1 [7]) [nM] | EC50 (rMOR-1D [8]) [nM] | Ki (rMOR-1D [3]) [nM] | Ki (rMOR-1A [4]) [nM]
1 | C[C@@H](NC(=O)[C@@H](N)Cc1ccc(O)cc1)C(=O)NCC(=O)N(C)[C@@H](Cc1ccccc1)C(=O)NCCO [[3H]DAMGO] | 2.8 ± 0.79 | 4.8 ± 0.6 | 4.5 ± 1.1 | 4.7 ± 1.2 | 2.5 ± 0.2 | – | – | – | – | – | – | – | – | – | –
2 | C[C@@H](NC(=O)[C@@H](N)Cc1ccc(O)cc1)C(=O)NCC(=O)N(C)[C@@H](Cc1ccccc1)C(=O)NCCO [DAMGO, [D-Ala^2,MePhe^4,Gly(ol)^5]enkephalin] | – | – | – | – | – | 13 ± 5 | 3.3 ± 0.6 | 4.5 ± 0.9 | 86 ± 16 | 2.4 ± 0.4 | 4 | 12 ± 3 | 125 ± 26 | 4.7 ± 1.2 | 6 ± 0.9
